{"source": "patent US20030171386A1", "about": "“Small molecules for the treatment of abnormal cell growth” (Pfizer Inc., priority 2001, published 2003)", "origin": "cited, not measured here", "conditions": "cited from earlier work; for dermal toxicity (rash): clinical trials, patients", "data": [{"substance": "HERCEPTIN: Genentech's tailor-made monoclonal antibody for the erbB2 receptor tyrosine kinase", "values": [{"measurement": "dermal toxicity (rash)", "value": "no rash was observed"}, {"measurement": "\"Black Box\" warning", "setting": "marketed antibody", "value": "cardiomyopathy and hypersensitivity reactions including anaphylaxis"}]}, {"substance": "C-225: Imclone's tailor-made anti-erbB1 monoclonal antibody [Example C-225]", "values": [{"measurement": "dermal toxicity (rash)", "value": "a similar rash was reported"}]}]}
